In ChEMBL document CHEMBL3232704, “Discovery of mixed type thymidine phosphorylase inhibitors endowed with antiangiogenic properties: synthesis, pharmacological evaluation and molecular docking study of 2-thioxo-pyrazolo[1,5-a][1,3,5]triazin-4-ones. Part II” (Eur J Med Chem, 2014) one finds inhibition data, which are given here for one compound.

Assay [1] deals with T1, Thymidine phosphorylase (Homo sapiens) (UniProt P19971).
T1 sequence (whole entry): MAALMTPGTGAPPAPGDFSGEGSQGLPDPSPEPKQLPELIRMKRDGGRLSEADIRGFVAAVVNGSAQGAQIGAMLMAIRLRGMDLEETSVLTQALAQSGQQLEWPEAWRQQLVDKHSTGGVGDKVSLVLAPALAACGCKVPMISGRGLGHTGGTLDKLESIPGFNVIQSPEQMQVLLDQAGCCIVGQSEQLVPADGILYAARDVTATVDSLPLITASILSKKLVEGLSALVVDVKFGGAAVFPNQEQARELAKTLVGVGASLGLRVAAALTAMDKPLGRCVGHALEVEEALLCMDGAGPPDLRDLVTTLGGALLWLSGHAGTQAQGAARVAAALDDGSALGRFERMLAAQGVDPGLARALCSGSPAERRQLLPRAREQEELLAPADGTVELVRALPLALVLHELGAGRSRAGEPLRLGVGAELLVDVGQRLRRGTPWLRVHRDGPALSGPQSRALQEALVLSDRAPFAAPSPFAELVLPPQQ
The assay can be described thus: Inhibition of thymidine phosphorylase-mediated MMP-9 expression in human MDA-MB-231 cells at 100 uM by densitometric analysis. Type of assay: cell-based.

Assay [2] has as its target T1, Thymidine phosphorylase (Homo sapiens). The assay can be described thus: Inhibition of thymidine phosphorylase-mediated VEGF expression in human MDA-MB-231 cells at 100 uM by ELISA. The assay is classed as cell-based. Background: An ELISA detects its analyte on a solid surface through an enzyme-linked reagent.

Active and inactive are the calls of the source. The calls are words filed in the database; no cut-off is given here.

Take `O=c1[nH]c(=O)c2cc[nH]c2[nH]1` [7-DEAZAXANTHINE]: the inhibition entry in assay [1] and in assay [2] was “inactive” throughout.
